Molecules are shown by their SMILES.

The term Kd denotes the free concentration of one partner at which half of the binding sites on the other are occupied at equilibrium, for simple one-to-one binding. A high value points to a looser complex.

The assay concerns the target Protease (Human immunodeficiency virus 1, UniProt Q9YQ12). Description: Binding affinity to HIV1 protease.

On to `Cc1cccc(C)c1OCC(=O)N[C@@H](Cc1ccccc1)[C@@H](O)C[C@H](Cc1ccccc1)NC(=O)[C@H](C(C)C)N1CCCNC1=O` [LOPINAVIR], for which the affinity, expressed as Kd, was 1.3 pM. In other words, the picomolar range.

The record behind these values is ChEMBL document CHEMBL3817767, “OpenGrowth: An Automated and Rational Algorithm for Finding New Protein Ligands” (J Med Chem, 2016).
